Assay results reported in patent publication US20170334959A1 (priority 2015, published 2017).

Sequences of proteins named here, by UniProt entry; tags and fusion partners are left off.
UniProt Q9UQD0, whole entry: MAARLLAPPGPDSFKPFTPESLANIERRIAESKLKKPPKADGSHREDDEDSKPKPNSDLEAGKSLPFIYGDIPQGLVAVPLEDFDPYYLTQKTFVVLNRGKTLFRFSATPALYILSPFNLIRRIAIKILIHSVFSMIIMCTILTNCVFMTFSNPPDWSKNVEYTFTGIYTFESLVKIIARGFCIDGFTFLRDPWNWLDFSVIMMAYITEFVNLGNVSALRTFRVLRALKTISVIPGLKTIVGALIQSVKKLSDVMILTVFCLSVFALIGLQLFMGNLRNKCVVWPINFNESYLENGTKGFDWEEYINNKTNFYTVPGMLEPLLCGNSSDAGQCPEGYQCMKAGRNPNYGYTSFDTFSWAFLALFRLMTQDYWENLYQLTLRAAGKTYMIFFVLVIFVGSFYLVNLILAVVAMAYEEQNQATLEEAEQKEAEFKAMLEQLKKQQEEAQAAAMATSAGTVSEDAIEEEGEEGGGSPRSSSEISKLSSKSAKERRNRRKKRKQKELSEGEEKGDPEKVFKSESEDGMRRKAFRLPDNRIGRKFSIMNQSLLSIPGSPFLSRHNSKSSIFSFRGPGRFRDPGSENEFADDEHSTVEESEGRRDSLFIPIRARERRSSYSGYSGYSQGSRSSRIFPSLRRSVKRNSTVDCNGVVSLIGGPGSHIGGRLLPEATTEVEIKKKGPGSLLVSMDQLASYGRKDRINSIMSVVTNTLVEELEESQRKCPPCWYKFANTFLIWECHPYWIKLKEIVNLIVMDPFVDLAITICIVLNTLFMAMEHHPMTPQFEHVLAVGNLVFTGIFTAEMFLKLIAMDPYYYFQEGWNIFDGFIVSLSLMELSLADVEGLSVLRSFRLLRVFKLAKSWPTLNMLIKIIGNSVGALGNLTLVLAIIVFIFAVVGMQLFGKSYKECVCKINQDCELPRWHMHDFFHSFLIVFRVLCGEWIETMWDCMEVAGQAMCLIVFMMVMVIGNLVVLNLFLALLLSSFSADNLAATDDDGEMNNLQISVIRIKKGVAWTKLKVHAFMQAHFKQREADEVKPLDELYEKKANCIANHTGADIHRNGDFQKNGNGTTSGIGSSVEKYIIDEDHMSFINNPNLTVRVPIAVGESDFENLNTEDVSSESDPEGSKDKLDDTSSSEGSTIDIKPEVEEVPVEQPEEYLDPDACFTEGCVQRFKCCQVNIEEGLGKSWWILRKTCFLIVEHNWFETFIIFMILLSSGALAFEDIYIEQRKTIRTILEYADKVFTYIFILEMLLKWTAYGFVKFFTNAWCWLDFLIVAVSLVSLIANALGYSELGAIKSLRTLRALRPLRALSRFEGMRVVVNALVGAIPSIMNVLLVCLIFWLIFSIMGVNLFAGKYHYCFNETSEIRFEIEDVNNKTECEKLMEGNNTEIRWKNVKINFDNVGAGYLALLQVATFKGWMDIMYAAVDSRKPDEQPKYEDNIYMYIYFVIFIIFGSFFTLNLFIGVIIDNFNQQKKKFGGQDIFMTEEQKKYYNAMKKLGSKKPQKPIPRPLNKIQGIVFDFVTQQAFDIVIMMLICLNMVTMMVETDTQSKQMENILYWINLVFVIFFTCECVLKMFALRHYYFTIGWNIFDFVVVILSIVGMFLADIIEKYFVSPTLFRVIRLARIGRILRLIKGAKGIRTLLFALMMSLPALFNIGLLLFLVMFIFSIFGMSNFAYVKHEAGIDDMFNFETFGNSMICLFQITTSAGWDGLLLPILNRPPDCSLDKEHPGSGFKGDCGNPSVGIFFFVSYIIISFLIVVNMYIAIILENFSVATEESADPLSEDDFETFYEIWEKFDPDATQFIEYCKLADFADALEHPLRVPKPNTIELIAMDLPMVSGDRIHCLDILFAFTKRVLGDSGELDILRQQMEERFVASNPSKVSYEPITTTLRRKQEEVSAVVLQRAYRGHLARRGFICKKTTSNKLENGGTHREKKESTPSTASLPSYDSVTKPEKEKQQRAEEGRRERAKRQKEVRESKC

Molecular target: human Nav1.6 (Homo sapiens, UniProt Q9UQD0)
Assay type: cell-based

## GPQCQKWMQTCDRERKCCEGFVCTLWCRKKLW-COOH [NV1D3034]
  selectivity for Nav1.7 compared to recombinant Protoxin-II: improved selectivity
